{"source": "the supplement of paper PMC13380429", "key": {"[1]": {"test_system": "Vero E6 infected with SARS-CoV-2", "experiment": "morphology score (similarity to uninfected cells); higher = more like uninfected cells", "settings": "10 µM; 24 h"}, "[2]": {"test_system": "Vero E6 infected with SARS-CoV-2", "experiment": "SARS-CoV-2 infection rate relative to infected DMSO; higher = more infection, active = 60 or less", "settings": "10 µM; 24 h"}}, "note": "For some assays here: Most of the highest values are listed elsewhere, so they are rarer here than in the full data. For some assays here: This list holds what a sample rich in hits left over."}
{"smiles": "COc1cc(Br)c(C[N+]2(CCOCCC3CCC4CC3C4(C)C)CCOCC2)cc1OC", "note": "(configuration not stated) [pinaverium]", "values": [{"measurement": "morphology score", "setting": "[1]", "result": -0.139}, {"measurement": "SARS-CoV-2 infection rate", "setting": "[2]", "result": "inactive: 112%"}]}
